# Reference: patent US20160101054A1, “SUSTAINED DELIVERY OF DRUGS FROM BIODEGRADABLE POLYMERIC MICROPARTICLES” (Yale University, priority 2008, published 2016)
# Molecular target: EGFR (Homo sapiens, UniProt P00533)
# Conditions: at 3 mM (~9.5 ng/mg polymer)
compound,measurement,value
COc1cc2ncnc(Nc3cccc(Cl)c3)c2cc1OC [AG1478],inhibition in A431 cells,greater than 95%
